According to patent publication US8541404B2, “Inhibitors of the human aldosterone synthase CYP11B2” (ElexoPharm GmbH, priority 2009, dated 2013):
Where two headings read alike, the source gives them in different places.

Molecular target: T1, human aldosterone synthase (CYP11B2) (Homo sapiens, UniProt P19099)
T1 construct: expressed in transfected cells; host or cells: V79 MZh11B2 (V79 Chinese hamster cells)
T1 sequence (P19099 25-503): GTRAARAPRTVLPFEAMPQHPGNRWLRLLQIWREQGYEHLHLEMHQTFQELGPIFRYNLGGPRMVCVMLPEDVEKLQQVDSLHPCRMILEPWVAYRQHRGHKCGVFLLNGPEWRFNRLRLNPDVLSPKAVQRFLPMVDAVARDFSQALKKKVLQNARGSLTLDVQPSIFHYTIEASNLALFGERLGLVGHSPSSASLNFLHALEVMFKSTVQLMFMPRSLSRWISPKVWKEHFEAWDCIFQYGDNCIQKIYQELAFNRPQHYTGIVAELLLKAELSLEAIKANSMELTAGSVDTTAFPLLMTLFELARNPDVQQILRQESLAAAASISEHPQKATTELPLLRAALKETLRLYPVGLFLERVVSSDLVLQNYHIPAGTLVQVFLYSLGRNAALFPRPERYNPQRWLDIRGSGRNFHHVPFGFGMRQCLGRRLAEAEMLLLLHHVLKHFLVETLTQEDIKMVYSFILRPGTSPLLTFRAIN
Assay: Test for CYP11B2 inhibitors in V79 MZh11B2 cells (test system B)
Format: cell-based
Conditions: V79MZh11B2, percentage inhibition, inhibitor concentration 0.5 μM, read-out: % (0.5 μM) hCYP11B2

[1] = Table 1, test system B (V79 MZh11B2)

Compound	inhibition at 0.5 µM [1] [%]	inhibition at 0.5 µM (Table 2, test system B) [%]
CCN1C(=O)CCc2cc(-c3cccnc3)ccc21 [Example 9, 1-Ethyl-6-pyridin-3-yl-3,4-dihydro-1H-quinolin-2-one]	93	–
O=C1CCc2cc(-c3cccnc3)ccc2N1 [Example 1, 6-Pyridin-3-yl-3,4-dihydro-1H-quinolin-2-one]	88	–
O=C1CSc2cc(-c3cccnc3)ccc2N1 [Example 14, 7-Pyridin-3-yl-4H-benzo[1,4]thiazin-3-one]	–	92
O=C1CCc2cc(-c3cccnc3)cc(Cl)c2N1 [Example 12, 8-Chloro-6-pyridin-3-yl-3,4-dihydro-1H-quinolin-2-one]	97	–
